Measured values taken from patent US20260384391A1, “MASKED 2-AMINOISOBUTYRIC ACID AND METHODS OF USE THEREOF” (published 2026).

How the values were obtained:
[1] = system: GFP-150TAG; M. mazei WT and M. mazei mkRS1 mutant synthetases; assay: in vivo GFP suppression assay (GFP-150TAG amber suppression), M. mazei PylRS/tRNA^pyl (FIG. 5); details: in words; control without unnatural amino acids ("None"); M. mazei WT and mkRS1 (FIG. 5)
[2] = system: M. mazei mkRS1 mutant (GFP-150TAG reporter); details: in words; previously shown; cited from earlier work

Compound | suppression of GFP compared to control [1] | incorporation by M. mazei mkRS1 mutant [2]
C[C@](N)(CSCCNC(=O)OCc1ccccc1)C(=O)O | showed suppression of GFP compared to the control | –
N[C@@H](CCCCNC(=O)OCc1ccccc1)C(=O)O | – | previously shown to incorporate CbzK
